The list shows a part of the results, in another mix than the full data. Calls of active or inactive are those of the source. No stated cut-off is given here; in the data, active means activation above about 47%; inactive means the rest.

Chains of the proteins cited; added tags and fusions are not shown. Lines headed by an entry give the natural chain unless they say otherwise; changes in a name come on top.
UniProt P35869: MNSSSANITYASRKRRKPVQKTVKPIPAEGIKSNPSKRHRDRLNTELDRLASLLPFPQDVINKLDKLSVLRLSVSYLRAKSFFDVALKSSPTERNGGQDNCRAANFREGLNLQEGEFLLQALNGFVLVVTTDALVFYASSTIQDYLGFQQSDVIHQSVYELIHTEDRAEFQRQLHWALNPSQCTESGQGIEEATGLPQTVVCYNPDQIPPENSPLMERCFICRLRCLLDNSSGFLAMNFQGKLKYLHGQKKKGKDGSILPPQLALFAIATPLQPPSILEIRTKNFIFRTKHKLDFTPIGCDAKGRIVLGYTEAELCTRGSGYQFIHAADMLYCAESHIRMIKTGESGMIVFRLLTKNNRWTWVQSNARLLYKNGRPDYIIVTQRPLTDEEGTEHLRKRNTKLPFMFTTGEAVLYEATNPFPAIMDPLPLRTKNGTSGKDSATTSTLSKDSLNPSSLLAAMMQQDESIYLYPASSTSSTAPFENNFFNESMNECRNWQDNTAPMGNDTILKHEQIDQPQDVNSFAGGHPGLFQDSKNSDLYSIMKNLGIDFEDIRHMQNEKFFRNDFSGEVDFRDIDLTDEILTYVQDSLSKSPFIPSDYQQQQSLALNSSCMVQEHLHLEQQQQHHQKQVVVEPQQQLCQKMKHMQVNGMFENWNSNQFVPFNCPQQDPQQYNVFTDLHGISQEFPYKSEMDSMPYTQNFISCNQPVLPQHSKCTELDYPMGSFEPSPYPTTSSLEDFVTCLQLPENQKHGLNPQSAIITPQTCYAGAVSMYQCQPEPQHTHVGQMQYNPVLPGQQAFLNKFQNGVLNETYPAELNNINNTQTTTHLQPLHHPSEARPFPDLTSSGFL

The target of the test is Aryl hydrocarbon receptor (Homo sapiens) (UniProt P35869). The experiment in a line: AHR activators, primary screen, cell-based, luminescence, luciferase reporter, human (AID 2796).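 Further: 0% = vehicle wells and 100% = reference agonist.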 As to conditions: AHR-responsive luciferase reporter cells, at 5 µM, active compounds read high.
With `Cc1ccc(NP(=O)(Oc2ccccc2)Oc2ccccc2)nc1`, the activation is inactive: 11.4%. In the case of `CCc1nc2c(n1)c1c(non1O)c1c2no[n+]1[O-]`, the activation was inactive: 1.62%. On to `O=[N+]([O-])c1cc([N+](=O)[O-])c(CCNc2ccccc2)c([N+](=O)[O-])c1`, for which the activation was active: 70%. For `O=[N+]([O-])c1cccc2n[nH]nc12` the value was inactive: 1.16%. For `CC(=O)N1C2C3N(C(C)=O)C1C1N(C(C)=O)C(C(N1C(C)=O)N3C(C)=O)N2C(C)=O` the value was inactive: -0.45%; for `COc1ccc(C2=NCC(CBr)S2)cc1` (stereo unspecified), inactive: 4.26%. Take `O=[N+]([O-])c1cccc(NC2=NCC(CBr)S2)c1` (stereo unspecified): the activation was inactive: 1.75%. Take `O=[N+]([O-])c1ncn(CCn2ncnc2[N+](=O)[O-])n1`: the activation was inactive: -1.5%. With `CC(C)(C)C(=O)NC(Sc1ccncn1)C(Cl)(Cl)Cl` (stereo unspecified), the activation is inactive: -0.33%. As for `O=C(Nc1cc([As](=O)(O)O)ccc1O)c1ccccc1`, the activation was inactive: 0.63%. For the molecule `O=C(OC1CN2CCC1CC2)c1cccc(Cl)c1` (stereo unspecified), the activation was inactive: -0.38%. For the molecule `Nc1ccc([As](=O)(O)c2ccc([N+](=O)[O-])cc2)cc1`, the activation was inactive: 2.03%. For `C(Cc1nn[nH]n1)Cc1nn[nH]n1`, the activation is inactive: -2.69%. Regarding `O=[As](O)(c1ccccc1)c1ccc(O)cc1`, the activation was inactive: -0.14%. As to `O=[N+]([O-])c1ccc(O)c(/C=N/Nc2ccc([N+](=O)[O-])cc2[N+](=O)[O-])c1`, the activation was inactive: 21.9%. As for `O=[N+]([O-])c1ncn(CCn2cnc([N+](=O)[O-])n2)n1`, the activation was inactive: -0.82%. In the case of `CC(=O)NC(SC(=S)N(C)C)C(Cl)(Cl)Cl` (stereo unspecified) it was inactive: 0.34%. In the case of `O=P(Nc1nc2ccccc2s1)(c1ccccc1)c1ccccc1` it was inactive: 6.61%. For `C[C@H]1OP(=O)(Oc2ccccc2)[C@H](O)[C@H](O)[C@H]1N=[N+]=[N-]` (stereo partly specified) the value was inactive: 2.04%. `O=P(Nc1ccccn1)(c1ccc(Br)cc1)c1ccc(Br)cc1`: the activation was inactive: 5%. Turning to `CN(C)C1(CNC(=O)c2ccc(Cl)c(S(N)(=O)=O)c2)CCCCC1`, the activation was inactive: 1.15%. For the molecule `c1nnnn1CCn1cnnn1`, the activation was inactive: 0.46%.

In the case of `CC(C)C(=O)NC(Sc1ccccc1)C(Cl)(Cl)Cl` (stereo unspecified), the activation was inactive: -4.02%.

In the case of `O=P(Nc1nccs1)(c1ccccc1)c1ccccc1`, the activation was inactive: 0.21%. As to `CC(=O)Nc1ccc([As](=O)(O)O)c(O)c1`, the activation was inactive: 1.18%. In the case of `CC(=O)Nc1ccc(Oc2c([N+](=O)[O-])cc([N+](=O)[O-])cc2[N+](=O)[O-])cc1` it was inactive: 0.89%. For the molecule `Cc1ccccc1CN(C)C(=O)COC(=O)C(O)(c1ccccc1)c1ccccc1`, the activation was inactive: -0.68%. In the case of `C[C@@H]1C=CCP(=O)(Oc2ccccc2)O1` (stereo partly specified), the activation is inactive: 1.23%. In the case of `C[C@H]1OP(=O)(Oc2ccccc2)C[C@@H]2O[C@@H]21` (stereo partly specified) it was inactive: 3.83%; in that of `CC(=O)c1ccc(N2CC2c2ccncc2)cc1` (stereo unspecified), inactive: 0.12%; in that of `CC(C)(C)C(=O)NC(Sc1ccccc1)C(Cl)(Cl)Cl` (stereo unspecified), inactive: 16.9%.

On to `O=P1(Nc2nc3ccc(Cl)cc3s2)COc2ccccc2O1` (stereo unspecified), for which the activation is inactive: 20.3%.

Turning to `CCOc1ccc(C2=NCC(CBr)S2)cc1` (stereo unspecified), the activation was inactive: 2.29%. As for `Cc1ccccc1OP(=O)(Nc1ccccn1)Oc1ccccc1C`, the activation is inactive: 0.15%. In the case of `CC(NC(=O)COC(=O)C(O)(c1ccccc1)c1ccccc1)c1ccccc1` (stereo unspecified), the activation is inactive: -0.66%.

`CN(C)C(=O)Oc1noc2ccccc12`: the activation is inactive: -0.26%.

`O=C(OC1CN2CCC1CC2)c1ccccc1` (stereo unspecified): the activation was inactive: 1.47%. Regarding `CCC(=O)N1C2C3N(C(=O)CC)C1C1N(C(=O)CC)C(C(N1C(=O)CC)N3C(=O)CC)N2C(=O)CC`, the activation was inactive: -0.46%. As to `COC(=O)c1cc2c(s1)N=C(c1ccccc1)N(C)P2(=O)N1CCOCC1` (stereo unspecified), the activation is inactive: -0.05%.

On to `Cc1ccc(OP(=O)(Nc2ccccn2)Oc2ccc(C)cc2)cc1`, for which the activation is inactive: 9.65%. In the case of `CC(=O)NC(SC(=S)N(CC(C)C)CC(C)C)C(Cl)(Cl)Cl` (stereo unspecified) it was inactive: 2.03%. In the case of `c1ccc(-c2nn[nH]n2)c(-c2nn[nH]n2)c1`, the activation was inactive: -0.72%.

Take `CCOC(=O)NC(Sc1ccccc1)C(Cl)(Cl)Cl` (stereo unspecified): the activation was inactive: 4.7%. In the case of `Cc1ccc(NP(=O)(Oc2cccc(C)c2)Oc2cccc(C)c2)nc1` it was inactive: 2.75%; in that of `CCNC(=S)/N=C(\N)N[N+](=O)[O-]`, inactive: -0.77%; in that of `O=C(NC1CCS(=O)(=O)C1)NP(=S)(Oc1ccccc1)Oc1ccccc1` (stereo unspecified), inactive: 1.89%.

The values are drawn from PubChem BioAssay AID2796 (The Scripps Research Institute Molecular Screening Center, 2010).
